# Apparent affinities of Ab-95 variants for a coronavirus HR2 peptide

From the AlphaSeq antibody data of Engelhart et al. 2022 (doi:10.1038/s41597-022-01779-4), copy in the FLAb collection.

All variants were tested on one target, the spike HR2 peptide PDVDLGDISGINAS (SARS-CoV-2).

Ab-95 is the parent antibody, in scFv form: VH, then a 15-residue (Gly4Ser)3 linker, then VL. The heavy chain is unchanged in all variants.
VH: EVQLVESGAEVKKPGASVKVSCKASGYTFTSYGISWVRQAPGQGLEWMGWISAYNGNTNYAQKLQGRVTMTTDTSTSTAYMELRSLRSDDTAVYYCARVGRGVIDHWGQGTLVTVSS
VL: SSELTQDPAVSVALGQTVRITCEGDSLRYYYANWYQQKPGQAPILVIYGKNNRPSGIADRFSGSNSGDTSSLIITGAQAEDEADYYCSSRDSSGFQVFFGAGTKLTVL

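Phage display of a naive human antibody library on the peptide gave the parent. Variants in AAYL52 differ from the parent at up to three CDR positions; double and triple changes were sampled at random. The assay is AlphaSeq: two haploid yeast populations carry antibody and antigen on their surface. Binding brings cells together so that they mate, and sequencing counts the barcode pairs among the diploids. Scores were corrected for input abundance and mapped to Kd with protein pairs of known affinity run in the same pool. Each pool was mated in three replicate cultures.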

Changes read parent residue, position, new residue, counted from the first residue of the VL shown.
Values are log10 of the apparent Kd in nM; lower means stronger binding.
Replicates are averaged; those with no signal do not enter the mean.
A pair that was not seen in that replicate is written "nd"; this usually means weak binding, but a binder can also be missed.
Empty control strains, which show no peptide, gave a signal in 28% of pairings with library AAYL52; the median was 3.91 and 95% of these signals were weaker than 2.90. No background was subtracted. The control count says in how many pairings with the empty strains this scFv gave a signal, with their mean in brackets.

| changes | replicates, log10 nM | mean, log10 nM | control signals |
|---|---|---|---|
| D25W+Y31H+P54Q | 3.64 / 3.09 / 2.94 | 3.22 | 1/9 (3.23) |
| D25A+G94I+F98K | 3.60 / 2.78 / 3.17 | 3.19 | 4/9 (3.65) |
| P54E+S55P+V97D | 2.97 / 3.76 / 3.95 | 3.56 | 2/9 (3.76) |
| G24T+K50R+S93R | 4.62 / 3.42 / 4.19 | 4.08 | 0/9 |
| N52E+R53Y+S55D | 3.16 / 3.44 / 4.06 | 3.56 | 3/9 (4.11) |
| G24P+D91Q+G94N | nd / nd / 4.90 | 4.90 | 2/9 (3.77) |
| A32P+N51C+R53A | 4.79 / nd / nd | 4.79 | 1/9 (2.84) |
| S89Q+D91S+F95I | 3.45 / 3.39 / 4.03 | 3.62 | 6/9 (3.78) |
| N52R+S89W+S93C | 4.33 / 3.95 / 4.26 | 4.18 | 6/9 (4.36) |
| N52R+P54S+G94Y | 3.91 / 3.29 / 2.76 | 3.32 | 6/9 (3.61) |
| L27E+Y30V+G94F | 2.18 / 4.20 / nd | 3.19 | 2/9 (3.29) |
| G24V+N33F+R53F | 4.64 / nd / nd | 4.64 | 2/9 (4.04) |
| Y30Q+R90S+Q96M | 1.52 / 1.53 / 1.35 | 1.47 | 1/9 (3.82) |
| N51D+D91N | 2.50 / 2.41 / 1.56 | 2.16 | 3/9 (3.79) |
| Y30E+D91K | 2.73 / 5.54 / 3.05 | 3.77 | 0/9 |
| G49A+D91L+S93K | 4.12 / 3.81 / nd | 3.96 | 4/9 (4.72) |
| E23G+N33W+D91P | nd / 5.72 / nd | 5.72 | 6/9 (3.69) |
| S26V+Y31Q+P54H | 3.21 / 3.03 / 3.37 | 3.21 | 3/9 (4.74) |
| N33L+S92F+V97D | 3.66 / 4.86 / 4.44 | 4.32 | 3/9 (4.11) |
| N33I+P54K+G94Y | nd / nd / nd | nd | 1/9 (3.57) |
| Y31L+N33Y+N51Y | nd / nd / nd | nd | 1/9 (2.86) |
| D25P+S88T+F95Y | 3.98 / nd / nd | 3.98 | 1/9 (3.21) |
| R28N+S55H+S93Q | 2.91 / 2.62 / 3.22 | 2.92 | 2/9 (4.09) |
| R90N+F98P | nd / nd / 3.25 | 3.25 | 1/9 (3.11) |

Continued, with the values leading:

| replicates, log10 nM | mean, log10 nM | control signals | changes |
|---|---|---|---|
| 3.41 / 2.95 / 2.66 | 3.01 | 1/9 (3.25) | D25A+P54V+D91I |
| nd / nd / nd | nd | 1/9 (3.89) | G24H+P54V+S92C |
| 4.01 / nd / 4.16 | 4.09 | 2/9 (4.71) | G24T+N51Y+F95Y |
| nd / nd / nd | nd | 1/9 (3.96) | G24R+D25Y+V97R |
| 2.47 / 2.80 / 2.41 | 2.56 | 2/9 (4.44) | D25W+S26N+Y29G |
| 4.31 / nd / nd | 4.31 | 4/9 (3.90) | R90I+V97F+F98T |
| 2.38 / 3.14 / 4.33 | 3.28 | 5/9 (3.61) | L27I+Q96R+V97A |
| 4.41 / 4.03 / nd | 4.22 | 2/9 (4.00) | L27I+F95C+F98D |
| 2.12 / 2.22 / 1.78 | 2.04 | 3/9 (3.77) | S26D+N52Q+G94R |
| 4.64 / nd / 3.00 | 3.82 | 1/9 (3.80) | G49F+S92C+G94P |
| nd / nd / nd | nd | 0/9 | E23Y+S55A+S88K |
| 3.75 / 3.34 / 3.74 | 3.61 | 3/9 (3.55) | E23Y+L27T+Y31T |
| 2.61 / 3.24 / 3.17 | 3.01 | 0/9 | L27F+D91A |
| 3.26 / 3.71 / nd | 3.49 | 4/9 (4.04) | P54Q+D91Y+F98A |
| 3.04 / 4.28 / 3.05 | 3.46 | 2/9 (3.20) | E23W+R90A+V97L |
| 3.03 / nd / nd | 3.03 | 2/9 (3.25) | D25K+R90S+F95V |
| 4.35 / 4.59 / 3.17 | 4.04 | 6/9 (3.98) | L27V+R28H+Y29R |
| 2.24 / 2.05 / 1.83 | 2.04 | 6/9 (3.62) | D25T+S89A+F95S |
| 4.31 / 3.25 / 3.08 | 3.55 | 4/9 (4.07) | L27V+A32M+Q96N |
| 3.70 / nd / 2.86 | 3.28 | 2/9 (3.69) | S26E+N33P+S88F |
| 1.96 / 1.58 / 1.43 | 1.66 | 1/9 (3.69) | E23R+Y29E+S88N |
| 4.28 / 4.42 / nd | 4.35 | 1/9 (4.05) | S26C+Y29P+N33S |
| 3.13 / 4.42 / 4.37 | 3.97 | 4/9 (3.97) | Y31M+D91V+G94A |
| 2.11 / 3.39 / 2.24 | 2.58 | 2/9 (3.54) | S26K+L27F+G94C |
| 1.99 / 2.02 / 1.89 | 1.97 | 2/9 (3.68) | R28A+Y30T+V97P |

Extract of 7 entries:

| changes | replicates, log10 nM | mean, log10 nM | control signals |
|---|---|---|---|
| E23G+N33W+D91P | nd / 5.72 / nd | 5.72 | 6/9 (3.69) |
| L27I+Q96R+V97A | 2.38 / 3.14 / 4.33 | 3.28 | 5/9 (3.61) |
| E23Y+L27T+Y31T | 3.75 / 3.34 / 3.74 | 3.61 | 3/9 (3.55) |
| D25K+R90S+F95V | 3.03 / nd / nd | 3.03 | 2/9 (3.25) |
| G24R+D25Y+V97R | nd / nd / nd | nd | 1/9 (3.96) |
| S26E+N33P+S88F | 3.70 / nd / 2.86 | 3.28 | 2/9 (3.69) |
| L27I+F95C+F98D | 4.41 / 4.03 / nd | 4.22 | 2/9 (4.00) |